{
  "sequences": {"note": "Chains of the proteins cited; added tags and fusions are not shown.", "UniProt Q92731, whole entry": "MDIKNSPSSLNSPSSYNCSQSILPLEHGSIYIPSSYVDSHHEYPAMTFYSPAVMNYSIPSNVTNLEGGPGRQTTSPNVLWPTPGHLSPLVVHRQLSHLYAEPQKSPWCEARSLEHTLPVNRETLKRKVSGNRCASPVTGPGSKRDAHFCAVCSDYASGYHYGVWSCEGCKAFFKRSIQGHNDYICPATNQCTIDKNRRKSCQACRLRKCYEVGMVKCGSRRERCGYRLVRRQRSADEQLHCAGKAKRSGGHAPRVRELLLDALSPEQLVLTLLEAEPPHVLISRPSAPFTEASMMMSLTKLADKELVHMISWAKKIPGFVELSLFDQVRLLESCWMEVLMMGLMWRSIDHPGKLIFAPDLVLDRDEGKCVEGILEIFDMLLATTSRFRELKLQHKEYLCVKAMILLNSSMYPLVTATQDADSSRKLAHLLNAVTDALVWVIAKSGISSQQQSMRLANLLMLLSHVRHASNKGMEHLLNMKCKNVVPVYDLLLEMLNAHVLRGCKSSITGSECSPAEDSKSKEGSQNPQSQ"},
  "source": "PubChem BioAssay AID633",
  "about": "(Emory University Molecular Libraries Screening Center, 2007)",
  "note": "Only a part is listed here, and it is no random draw. Active and inactive are the calls of the source.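 How the source made its calls: active means compounds whose percent inhibition of the receptor-coactivator binding signal exceeds about 50% in the single-dose screen (limit read from the data); inactive means the rest.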",
  "data": [
    {"target": "Estrogen receptor beta (Homo sapiens) (UniProt Q92731)", "experiment": "inhibitors of ERβ-SRC1 coactivator interaction, primary screen, biochemical, TR-FRET, ERβ LBD, SRC-1 peptide (AID 633);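 further: 0% = receptor plus peptide wells without compound and 100% = peptide-only wells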", "details": "TR-FRET ER-beta LBD / SRC1-Cy5 peptide binding; at 25.6 µM; stronger effect = higher value", "values": [
      {"smiles": "Cc1nc2ccc3ccccc3c2o1.O=[N+]([O-])c1cc([N+](=O)[O-])c(O)c([N+](=O)[O-])c1", "inhibition": "inactive: 3.48%"},
      {"smiles": "COc1ccccc1OP(C)(=O)Nc1ccc(C)c(C)c1", "note": "(configuration not stated)", "inhibition": "inactive: -9.12%"},
      {"smiles": "CCc1ccc(OP(C)(=O)O)cc1", "inhibition": "inactive: -4.96%"},
      {"smiles": "COc1ccccc1OP(C)(=O)Nc1ccc(C)cc1C", "note": "(configuration not stated)", "inhibition": "inactive: -4.03%"},
      {"smiles": "CP(=O)(Nc1ccccn1)Oc1ccccc1", "note": "(configuration not stated)", "inhibition": "inactive: 9.9%"},
      {"smiles": "Cc1c(NP(C)(=O)Oc2ccc(C(C)C)cc2)c(=O)n(-c2ccccc2)n1C", "note": "(configuration not stated)", "inhibition": "inactive: 6.87%"},
      {"smiles": "CN(C)CCOC(=O)C(O)(c1ccccc1)C1CCCC1", "note": "(configuration not stated)", "inhibition": "inactive: 1.31%"},
      {"smiles": "COc1ccc(OP(C)(=O)Nc2ccccn2)cc1", "note": "(configuration not stated)", "inhibition": "inactive: 3.7%"},
      {"smiles": "CP(=O)(Nc1ccc(Cl)cc1)Oc1ccc(F)cc1", "note": "(configuration not stated)", "inhibition": "inactive: 20%"},
      {"smiles": "CC(C)(C)c1ccc(OP(C)(=O)O)cc1", "inhibition": "inactive: -4.61%"},
      {"smiles": "CP(=O)(Oc1ccccc1)N1CCOC1=O", "note": "(configuration not stated)", "inhibition": "inactive: 0.37%"},
      {"smiles": "COc1ccccc1OP(C)(=O)Nc1c(C)n(C)n(-c2ccccc2)c1=O", "note": "(configuration not stated)", "inhibition": "inactive: -6.81%"},
      {"smiles": "CP(=O)(OC12CC3CC(CC(C3)C1)C2)OC12CC3CC(CC(C3)C1)C2", "inhibition": "inactive: -0.51%"},
      {"smiles": "CN(C)CCOC(=O)C(O)(c1ccccc1)C1CCCCC1", "note": "(configuration not stated)", "inhibition": "inactive: -7.32%"},
      {"smiles": "Cc1ccccc1NP(C)(=O)Nc1ccccc1C", "inhibition": "inactive: 3.85%"},
      {"smiles": "CP(=O)(Nc1ccc2c(c1)OCCO2)Oc1ccccc1", "note": "(configuration not stated)", "inhibition": "inactive: 11%"},
      {"smiles": "CCOP(C)(=S)SCC(=O)NC(C)(CC)C(=O)O", "note": "(configuration not stated)", "inhibition": "inactive: -3.73%"},
      {"smiles": "CP(=O)(Nc1ccccc1F)Oc1ccccc1", "note": "(configuration not stated)", "inhibition": "inactive: -6.04%"},
      {"smiles": "CP(=O)(Nc1ccccc1)Oc1ccc(F)cc1", "note": "(configuration not stated)", "inhibition": "inactive: -5.27%"},
      {"smiles": "CCN(CC)CCCOC(=O)C(O)(c1ccccc1)C1CCCCC1", "note": "(configuration not stated)", "inhibition": "inactive: 1.74%"},
      {"smiles": "Cc1cc(C)cc(OP(C)(=O)Nc2ccccn2)c1", "note": "(configuration not stated)", "inhibition": "inactive: -6.88%"},
      {"smiles": "Cc1ccc(C)c(NP(C)(=O)Oc2ccccc2)c1", "note": "(configuration not stated)", "inhibition": "inactive: 9.66%"},
      {"smiles": "Cc1cc(C)cc(OP(C)(=O)Nc2ccc(C)cc2C)c1", "note": "(configuration not stated)", "inhibition": "inactive: 2.68%"},
      {"smiles": "Cc1nc2ccc3ccccc3c2s1.O=[N+]([O-])c1cc([N+](=O)[O-])c(O)c([N+](=O)[O-])c1", "inhibition": "inactive: 12.1%"},
      {"smiles": "COc1ccccc1OP(C)(=O)Nc1c(C)cccc1C", "note": "(configuration not stated)", "inhibition": "inactive: -20.7%"},
      {"smiles": "CP(=S)(Nn1cnnc1)Oc1ccccc1", "note": "(configuration not stated)", "inhibition": "inactive: -1.87%"},
      {"smiles": "CP(=O)(Nc1ccccn1)Oc1ccc(Cl)cc1", "note": "(configuration not stated)", "inhibition": "active: 79.2%"},
      {"smiles": "CCOP(C)(=S)SCC(=O)NC(C)C(=O)O", "note": "(configuration not stated)", "inhibition": "inactive: -0.66%"},
      {"smiles": "CP(=O)(NC(=O)Nc1ccccc1)Oc1ccccc1", "note": "(configuration not stated)", "inhibition": "inactive: 1.62%"},
      {"smiles": "COc1ccc(OP(C)(=O)Nc2cccc(F)c2)cc1", "note": "(configuration not stated)", "inhibition": "inactive: -13.3%"},
      {"smiles": "Cc1ccc(NP(C)(=O)Oc2ccccc2)c(C)c1", "note": "(configuration not stated)", "inhibition": "inactive: 4.49%"},
      {"smiles": "COc1ccccc1OP(C)(=O)Nc1ccc(C)cc1", "note": "(configuration not stated)", "inhibition": "inactive: -3.55%"}
    ]}
  ]
}
